Reference: ChEMBL document CHEMBL1122707, “Pyrroloisoquinoline antidepressants. Potent, enantioselective inhibition of tetrabenazine-induced ptosis and neuronal uptake of norepinephrine, dopamine, and serotonin” (J Med Chem, 1984)

Chains of the proteins cited; added tags and fusions are not shown.
UniProt P31652, whole entry: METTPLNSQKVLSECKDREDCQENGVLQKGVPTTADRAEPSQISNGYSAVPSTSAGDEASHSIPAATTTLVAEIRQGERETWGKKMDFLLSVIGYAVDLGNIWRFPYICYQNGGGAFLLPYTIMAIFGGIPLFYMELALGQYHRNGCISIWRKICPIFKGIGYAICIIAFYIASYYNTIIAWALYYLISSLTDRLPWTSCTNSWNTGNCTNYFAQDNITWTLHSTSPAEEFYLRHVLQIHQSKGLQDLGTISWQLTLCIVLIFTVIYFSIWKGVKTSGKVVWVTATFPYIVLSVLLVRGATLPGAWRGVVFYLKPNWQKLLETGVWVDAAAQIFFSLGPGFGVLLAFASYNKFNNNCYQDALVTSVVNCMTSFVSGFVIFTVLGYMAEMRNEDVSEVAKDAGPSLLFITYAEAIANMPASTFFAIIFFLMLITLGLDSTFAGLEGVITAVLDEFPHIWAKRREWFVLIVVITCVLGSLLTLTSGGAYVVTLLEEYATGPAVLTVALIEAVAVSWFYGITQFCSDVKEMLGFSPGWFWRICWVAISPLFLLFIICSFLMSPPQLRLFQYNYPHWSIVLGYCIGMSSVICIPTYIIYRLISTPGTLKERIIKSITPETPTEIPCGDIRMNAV

Target: Sodium-dependent serotonin transporter (Rattus norvegicus, UniProt P31652)
Assay: Inhibition of serotonin (5-HT) uptake into rat brain synaptosomes
Type: subcellular

Ki | Structure (SMILES)
> 100 nM | Cl.FC(F)(F)c1cccc([C@@H]2CN3CCC[C@H]3c3ccccc32)c1
44 nM | Br.Nc1ccc([C@H]2CN3CCC[C@H]3c3ccccc32)cc1
18.1 nM | Br.COc1ccc(C2CN3CCC[C@H]3c3ccccc32)cc1OC (stereo partly drawn)
874 nM | CN1Cc2c(N)cccc2C(c2ccccc2)C1 (stereo not drawn) [NOMIFENSINE]
5 nM | Br.O=[N+]([O-])c1ccc(C2CN3CCC[C@H]3c3ccccc32)cc1 (stereo partly drawn)
1.7 nM | Br.COc1ccc(C2CN3CCC[C@H]3c3ccccc32)cc1 (stereo partly drawn)
> 500 nM | c1ccc(C2CN3CCCCC3c3ccccc32)cc1 (stereo not drawn)
> 500 nM | Br.Nc1ccc([C@@H]2CN3CCC[C@H]3c3ccccc32)cc1
3.2 nM | Br.Oc1ccc(C2CN3CCC[C@H]3c3ccccc32)cc1 (stereo partly drawn)
23 nM | Cl.FC(F)(F)c1cccc([C@H]2CN3CCC[C@H]3c3ccccc32)c1
33.1 nM | Br.Oc1ccc(C2CN3CCC[C@H]3c3ccccc32)cc1O (stereo partly drawn)

Structure (SMILES) | Ki
COc1ccc2c(c1)CN(C)CC2c1ccc(Cl)c(Cl)c1 (stereo not drawn) [DICLOFENSINE] | 18.4 nM
Clc1ccc(C2CN3CCC[C@H]3c3ccccc32)cc1Cl (stereo partly drawn) | 1.8 nM
